Tests used:
[1] = molecular target: T1, human MRA (IgG) (Homo sapiens, UniProt P01857); test: dot blotting detection of human MRA (IgG) on nitrocellulose membranes; format: binding; conditions: untreated MRA, Fc-III(N)
T1 construct: purchased Chugai Pharmaceutical
Experimental: Acid-treated human MRA (IgG) was detected on the membrane using IMGpep-4K6R (the peptide of the present invention) and the IMGpep-1CS peptide. Specifically, acid-treated human MRA (IgG) and untreated human MRA (IgG) were spotted on nitrocellulose membranes in an amount of 1.5 ng, 3 ng, 6 ng, 12.5 ng, 25 ng, 50 ng, and 100 ng per spot. The membranes were dried for 5 minutes and then 0.5% BSA was added for blocking for 2 hours at room temperature. Here, acid-treated human MRA was prepared by adding 10 μl of 1 M glycine-HCl (pH 2.8) to 100 μl of humanized anti-human IL-6 receptor IgG antibody (MRA) (2000 μg/ml, PBS solution), carrying out incubation at 40° C. for 10 minutes, and then neutralizing it by the addition of 30 μl of 1 M Tris-HCl (pH 8.7).
A biotinylated IMGpep-4K6R peptide or a biotinylated Fc-III peptide, or IMGpep-1CS, were mixed with HRP-conjugated SA (streptavidin) (120 nM) in advance at a molar ratio of 4:1. The mixture was added to the membranes blocked as described above, followed by 1 hour of reaction. After 3 times of washing with PBS containing 0.1% Tween20, a chemiluminescence reagent (Chemi-Lumi One, Nakalai Tesque) was added. Images were analyzed for detection using a LAS-1000 Image Analyzer (Fuji Film).

[2] = SPR determination of generation rate of acid-denatured IgG under acid treatment conditions; format: physicochemical; conditions: 10 minutes
Experimental: For this SPR analysis, human IgG samples were prepared via acid treatment under various conditions as described below and then tested. […] Subsequently, 30 μl (or 20 μl for a sample to which glycine-HCl with pH 2.7 had been added) of 1 M Tris-HCl (pH 8.7) was added to each solution for neutralization.

Work on “DCAWHLGELVWCT [Fc-III, reference compound]” yielded a detection limit [1] of 6 ng/spot.
With “anti-HER2 human antibody: anti-HER2 human antibody (Herceptin)” the “generation rate of acid-denatured IgG” value ([2]; acid treatment pH 1.5, 20° C.) was 12.8%, the “generation rate of acid-denatured IgG” value ([2]; acid treatment pH 2.1, 20° C.) was 7.8% and the “generation rate of acid-denatured IgG” value ([2]; acid treatment pH 2.7, 20° C.) was “approximately 5%”. For the same substance, the “generation rate of acid-denatured IgG” value ([2]; acid treatment pH 2.7, 30° C.) was 9.7%.

Reference: patent publication US8372950B2, “IgG binding peptide” (Kagoshima University, priority 2006, dated 2013)
